PMC4730229, “Benzobisthiazoles Represent a Novel Scaffold for Kinase Inhibitors of CLK Family Members” (Biochemistry, 2015)

Target: T1, Dyrk1A (Homo sapiens, UniProt Q13627)
T1 construct: purchased Invitrogen PV3785
Experiment: Kinase inhibition assay, IC50
Assay type: biochemical
Description: A small molecule inhibitor library consisting of 1600 compounds was obtained from LIFE Chemicals (Kiev, Ukraine). These compounds are part of the CUTE kinase collection that was predicted by in silico profiling against a panel of targets and includes potent kinase inhibitor compounds.[16] Compounds were dissolved as 10 mM stocks in DMSO and stored at room temperature, in the presence of 5% humidity and 5% oxygen in the dark in a Roylan Storage Pod system. Compounds were dispensed into white 384-well plates using the Labcyte Echo520 instrument at a final concentration of 10 μM. Next, 5 μL of 144.92 nM purified GST-CLK2cd in kinase assay buffer A was added to the compounds, incubated for 10 min at room temperature prior to addition of 5 μL of a 2 μM ATP/10 μM S6K peptide mixture, and incubated again for 60 min at room temperature. Subsequently, 10 μL of Kinase-Glo was added to the wells, and the plates were analyzed after 10 min on the Envision II multilabel plate reader (PerkinElmer). […] The percentage of inhibition is equal to 100 – [(total ATP before assay – remaining ATP in assay with compound)/(total ATP before assay – remaining ATP in assay with DMSO) × 100]. […] NR9 was obtained from Enzo Life Sciences (catalog no. ALX-270-463-M001). […]

## O=C1N=C(NCc2cccs2)S/C1=C\c1ccc2ncccc2c1 [NR9, (5Z)-5-(quinolin-6-ylmethylidene)-2-[(thiophen-2-ylmethyl)amino]-1,3-thiazol-4(5H)-one]
  IC50: 596 nM
